From patent US6939953B2, “Leukotriene receptor” (Schering Corporation, priority 1999, dated 2005)

Biological target: T1, SP9030 (human leukotriene receptor, SEQ ID NO: 2) (Homo sapiens, UniProt Q9NPC1)
T1 construct: The ORF of SP9030 was cloned in the expression vector pCR3.1 (pCR3.1-SP9030); expressed in transfected cells; host or cells: COS-7 cells (membranes)
T1 sequence (Q9NPC1 1-358): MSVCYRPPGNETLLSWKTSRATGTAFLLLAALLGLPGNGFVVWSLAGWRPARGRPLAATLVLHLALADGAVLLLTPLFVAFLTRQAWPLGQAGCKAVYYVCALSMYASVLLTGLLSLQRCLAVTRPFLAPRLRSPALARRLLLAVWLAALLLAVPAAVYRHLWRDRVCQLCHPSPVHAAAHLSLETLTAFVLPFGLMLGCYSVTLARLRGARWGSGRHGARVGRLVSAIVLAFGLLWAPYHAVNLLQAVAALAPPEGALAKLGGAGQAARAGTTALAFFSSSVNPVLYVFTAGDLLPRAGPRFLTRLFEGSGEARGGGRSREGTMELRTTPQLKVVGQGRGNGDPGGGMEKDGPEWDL
Assay: Saturation radioligand binding assay with ^3H-LTB4 on membranes of COS-7 cells transfected with pCR3.1-SP9030
Details: COS-7 membranes, n=3
Method: COS-7 cells, grown in DMEM/10% FCS until 80-90% confluence, were transfected with SuperFect agent (Giagene) at 20 μg DNA/150 mm plate. Forty eight hours after transfection, medium was changed to Opti-MEM or DMEM/Opti-MEM(1:1)/5% FCS. Cells were harvested 72 hours after transfection and membranes from the cells were prepared as follows. The cells were washed with 20 ml PBS without Ca^2+/Mg^2+ and incubated with 10 ml […] Hepes pH 7.4, 0.5 mM PMSF, 20 μg/ml aprotinin. The cells were scraped off the plate and vortexed. The cell suspension was then centrifuged at 13,000 g at 4° C. for 15 min. The pellets were re-suspended in 1.8 ml 50 mM Tris-Cl, pH 7.5 and vortexed. The membranes were homogenized with a 23-gauge needle. The protein concentration of the membrane preparations was determined with the BCA agents (Pierce).
Radioligand binding assays were performed to test the ability of SP9030, when expressed in cultured cells, to bind ^3H-labeled leukotriene. The ORF of SP9030 was cloned in the expression vector pCR3.1 (pCR3.1-SP9030). COS-7 cells were transfected with pCR3.1-SP9030 or pCR3.1 alone (mock transfection). […]
The reactions were incubated for 1 hour at 4° C. while rotated slowly. […] Fifty microliters of scintillation fluid was added to the filters and counted to detect the bound radioligands. […]

^3H-leukotriene B4 [^3H-LTB4]
Kd (1 hour at 4° C.): 0.17 ± 0.07 nM | Bmax (saturation radioligand binding): 70 ± 8 fmol/mg
